From PubChem BioAssay AID1865 (National Center for Advancing Translational Sciences (NCATS), 2009) come the findings set out here.

Each structure is given as a SMILES string. The list shows a part of the results, in another mix than the full data. The source made the active and inactive calls. The call rests on the fitted dose curve; in most records, active means well fitted activation curve with a large enough effect; inconclusive means small, poorly fitted or top-dose-only effect; inactive means flat fitted curve, though single readings scatter.

A short description of this test: Quantitative High-Throughput Screen for Regulators of Epigenetic Control. Further: % of control where 0% means no effect; nearly all actives have a fitted effect of over 60% in size. The following applies: murine LDR cells, GFP reporter derepression, 30 h; at 53.9 µM (top of the series) unless noted. In a few lines:
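GFP-positive cell count by laser-scanning cytometry (objects 20–120 um) after 30 h, 37 C compound exposure of murine LDR cells; reporter is CMV-GFP integrated at a silenced locus, inducible by HDAC or DNMT inhibitors.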
With `Clc1n[nH]nc1-c1nn[nH][15n]1`, the GFP activation is inactive: 1.03%.

As for `O=P1(Nc2ncccn2)COc2ccccc2OC1`, the GFP activation was inactive: -2.71%.

For the molecule `Nc1cccc([As](=O)(O)c2ccccc2)c1`, the GFP activation is inactive: 1.05%.

In the case of `O=[As](O)(c1cccs1)c1cccs1`, the GFP activation is inactive: 0%.

For the molecule `Cc1ccc(OCC(=O)OC2CN3CCC2CC3)cc1` (stereo not given), the GFP activation is inactive: 2.54%.

As for `O=P1(Nc2ccc(Br)cn2)COc2ccccc2OC1`, the GFP activation is inactive: -0.0893%.

As to `CC1CCC(C(C)C)C(OP(=O)(Nc2ccccn2)c2ccccc2)C1` (stereo not given), the GFP activation was inactive: -0.816%.

For the molecule `Cc1nn(-c2ccccc2)c2c1P(=O)(N1CCOCC1)N(C)C(c1ccccc1)=N2` (stereo not given), the GFP activation was inactive: -0.98%.

Consider `CN(C)C1(CNC(=O)c2ccc(S(C)(=O)=O)cc2)CCCCC1`, for which the GFP activation was inactive: 0.152%.

Consider `O=C(/C=C/c1ccccc1)OC1CN2CCC1CC2` (stereo not given), for which the GFP activation was inactive: -0.281%.

Regarding `CCOC(=O)Nc1cccc([As](=O)(O)O)c1`, the GFP activation is inactive: -6.09%.

`O=P(Nc1ccccn1)(c1cccc2ccccc12)c1cccc2ccccc12`: the GFP activation was inactive: -0.805% [at 10.1 µM].

Consider `Cc1cc(SC(NC=O)C(Cl)(Cl)Cl)ncn1` (stereo not given), for which the GFP activation is inactive: 5.9%.

As for `O=[N+]([O-])c1ccc(Nc2ccc(Oc3ccc([N+](=O)[O-])cc3[N+](=O)[O-])cc2)c([N+](=O)[O-])c1`, the GFP activation is inactive: 2.99%.

Turning to `CCOC(=O)Nc1ccc([As](=O)(O)O)c(O)c1`, the GFP activation was inactive: 0%.

As to `Cc1cc(SC(NC(=O)c2ccccc2)C(Cl)(Cl)Cl)nc(C(C)C)n1` (stereo not given), the GFP activation was inactive: 0%.

In the case of `CCOC(=O)c1ccc(NC(=O)C(C)(CCl)SC)cc1` (stereo not given), the GFP activation is inactive: 1.05%.

Regarding `CCC(C)N(CC(C)C)C(=S)SC(NC(C)=O)C(Cl)(Cl)Cl` (stereo not given), the GFP activation is inactive: -2.06%.

As to `COP1(=S)c2c(C)nn(CCC#N)c2N=C(c2ccc(F)cc2)N1C` (stereo not given), the GFP activation is inactive: 1.08%.

For the molecule `O=C(COc1ccccc1)OC1CN2CCC1CC2` (stereo not given), the GFP activation is inactive: -0.917%.

Regarding `COc1ccc(N/C(=N/P(=O)(N2CCOCC2)N2CCOCC2)N2CCOCC2)cc1`, the GFP activation was inactive: 2.38%.

In the case of `Cc1c2c(nc3ccccc13)SC(C(Cl)Cl)C2` (stereo not given), the GFP activation was inactive: -0.99%.

As to `Cc1cc(=O)[nH]c(N[N+](=O)[O-])n1`, the GFP activation was inactive: 0.0193%.

Consider `O=C(OC1CN2CCC1CC2)C12CC3CC(CC(C3)C1)C2` (stereo not given), for which the GFP activation was inactive: 2.65%.

Turning to `COc1cc(I)ccc1[As](=O)(O)O`, the GFP activation was inactive: 2.1%.

For `COc1ccc2nc(NP(=O)(c3ccccc3)c3ccccc3)sc2c1`, the GFP activation was inactive: -3.5%.

Consider `ClCCSc1nnc(-c2cccnc2)o1`, for which the GFP activation was inactive: 0%.

On to `CC(C)c1ccc(OP(=O)(Nc2ccccn2)Oc2ccccc2F)cc1` (stereo not given), for which the GFP activation is inactive: 1.08%.

With `O=[N+]([O-])c1cc([N+](=O)[O-])c(-c2ccn[nH]2)s1`, the GFP activation is inactive: -6.11%.

Turning to `CC(C)NC(=O)NP(=O)(Oc1ccccc1)Oc1ccccc1`, the GFP activation is inactive: -1.63%.

For the molecule `CCN(CC)C(=S)SC(NC=O)C(Cl)(Cl)Cl` (stereo not given), the GFP activation was inactive: -1.08%.

On to `O=[As](O)(c1ccc(O)cc1)c1ccccc1O`, for which the GFP activation was inactive: -0.99%.

On to `C[As](=O)(O)c1cccc(C(=O)O)c1`, for which the GFP activation was inactive: 1.61%.

Turning to `Cc1ccc(OP(=O)(Nc2ccc([N+](=O)[O-])cn2)Oc2ccc(C)cc2)cc1`, the GFP activation was inactive: 4.6%.

As for `Cc1ccc2nc3c(c(C)c2c1)CC(C(Cl)Cl)S3` (stereo not given), the GFP activation was inactive: 0%.
